Experimental data as given in paper PMC10626537, “Pharmacokinetic and pharmacodynamic studies of nicotine in rat brain: a simultaneous investigation of nicotine metabolites and the release of neurotransmitters in vivo” (Frontiers in Chemistry, 2023).

Assay: Online brain microdialysis UHPLC-HRMS/MS pharmacokinetics of Nic and its main metabolites in rat NAc after single Nic injection
Type: in vivo
Design: AUC0–360 min: unit not given here
Details: for AUC0–360 min: rat NAc dialysate, Nic 2 mg kg^-1 ip single injection, two-compartmental model; for C max / CL/F / MRT / t 1/2z / t max: rat NAc
Experimental: To inhibit the main Nic metabolic enzyme CYP2B in the brain, rats received intraperitoneal injections of proadifen (50 mg kg^−1·day^−1, 4 d) ([Song et al., 2012]). Control animals were pretreated with saline using the same protocol. All the rats were sacrificed by cardiac perfusion after microdialysis sampling. The brain tissues were separated and divided into four parts (cerebrum, cerebellum, diencephalon, and brainstem). The CYP2B activity in different rat brain regions was determined following the instructions of the GENMED CYP2B1 activity fluorescence quantitative detection kit (GENMED SCIENTIFICS INC. U.S.A, GMS18019.1).
The mass spectrometer was operated in positive ionization mode. […] The normalized collision energy was set at 10%.

[1] = Nic 2 mg kg^-1 ip, Prodifine (proadifen) pretreated
[2] = Nic 2 mg kg^-1 ip, saline-pretreated

For (R, S)- nornicotine [NNic], the “AUC0–360 min” value (Prodifine (proadifen 50 mg kg^-1 d^-1 ip, 4 days) pretreated) was 5.9, the “AUC0–360 min” value (saline-pretreated) was 37.4 and the C max [1] was 23.5 ng/mL. For the same substance, the CL/F [1] was 7.0 mL/min, the MRT [1] was 2.99 h and the “t 1/2z” value [1] was 2.782 h. It also gave a t max [1] of 2 h, a C max [2] of 160.4 ng/mL and a CL/F [2] of 2.0 mL/min. For the same substance, the MRT [2] was 2.998 h, the “t 1/2z” value [2] was 1.932 h and the t max [2] was 2.83 h. The “decrease of C max (level) of Nic metabolite after CYP2B1 inhibition compared with control rats” value (rat brain, Nic 2 mg kg^-1 ip, proadifen-pretreated vs saline control) was 85.3%.
